From patent US7105679B2, “Heteroatom containing tetracyclic derivatives as selective estrogen receptor modulators” (priority 2001, dated 2006)

Protein sequences, listed by entry. Tags and fused reporters are not part of them.
UniProt P03372, whole entry: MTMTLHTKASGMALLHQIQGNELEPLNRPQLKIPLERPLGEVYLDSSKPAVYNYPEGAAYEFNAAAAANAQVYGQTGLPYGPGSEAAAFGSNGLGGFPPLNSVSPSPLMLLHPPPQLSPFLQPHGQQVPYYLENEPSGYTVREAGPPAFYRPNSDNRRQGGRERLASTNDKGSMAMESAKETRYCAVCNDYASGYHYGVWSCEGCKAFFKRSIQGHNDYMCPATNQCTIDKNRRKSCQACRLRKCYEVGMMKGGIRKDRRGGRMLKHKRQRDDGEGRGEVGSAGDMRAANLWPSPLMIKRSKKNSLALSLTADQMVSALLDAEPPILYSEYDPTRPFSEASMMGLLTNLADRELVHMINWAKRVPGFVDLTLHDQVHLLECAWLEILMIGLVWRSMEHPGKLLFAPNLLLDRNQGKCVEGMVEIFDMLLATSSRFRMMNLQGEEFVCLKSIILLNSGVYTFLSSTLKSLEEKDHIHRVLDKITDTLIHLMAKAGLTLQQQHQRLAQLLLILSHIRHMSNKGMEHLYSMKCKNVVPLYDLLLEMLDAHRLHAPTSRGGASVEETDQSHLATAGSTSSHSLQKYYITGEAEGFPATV

Legend:
[1] = target: human estrogen receptor α (Homo sapiens, UniProt P03372); test: Estrogen Receptor α Flash Plate Assay (binding of radiolabeled estrogen); conditions: read-out: Estrogen Receptor α in μM (No.), 0.5 nM radiolabeled estrogen, number in brackets = No. of determinations, NA = no detected activity at test concentration
[2] = test system: MCF-7 cells; test: MCF-7 Cell Proliferation Assay (14C-thymidine, agonist and antagonist mode); format: cell-based; conditions: read-out: Antagonist (No.), antagonist mode with 10 nM 17β-estradiol, number in brackets = number of tests, NA = no detected activity at test concentration
[3] = test system: Ishikawa cells; test: Alkaline Phosphatase Assay in Human Endometrial Ishikawa Cells (agonist and antagonist mode); conditions: read-out: Antagonist (No.), antagonist mode with 10 nM 17β-estradiol, number in brackets = number of tests, NA = no detected activity at test concentration

Row | Structure (SMILES) | IC50 [1] [µM] | IC50 [2] [nM] | IC50 [3] [nM]
1 | Oc1ccc2c(c1)OC(c1ccc(OCCN3CCCCC3)cc1)C1=C2CCCOc2cc(O)ccc21 (single isomer, unassigned) [126] | 0.0042 | – | –
2 | CN(C)CCOc1ccc(C2Oc3cc(O)ccc3C3=C2c2ccc(O)cc2OCC3)cc1 (single isomer, unassigned) [163] | 0.013 | – | –
3 | CN(C)CCOc1ccc(C2Oc3cc(O)ccc3C3=C2c2ccc(O)cc2OCC3)cc1 (single isomer, unassigned) [164] | 0.0028 | – | –
4 | COc1ccc2c(c1)OC(c1ccc(OCCN3CCCCC3)cc1)C1=C2CCOc2cc(O)ccc21 (single isomer, unassigned) [Compound 302, 8-Methoxy-5R*-(+)-[4-(2-piperidin-1-yl-ethoxy)-phenyl]-11,12-dihydro-5H-6,13-dioxa-benzo[3,4]cyclohepta[1,2-a]naphthalen-2-ol] | 0.125 | > 1000 | 739
5 | Oc1ccc2c(c1)OC(c1ccc(OCCN3CCCCC3)cc1)C1=C2CCCOc2cc(O)ccc21 (single isomer, unassigned) [125] | 0.079 | – | –
